The list shows a part of the results, in another mix than the full data. Some of these compounds have results that are not shown, active ones among them. Calls of active or inactive are those of the source. Cut-off read from the data, not from the text of the source: active = inhibition above about 43%; inactive = the rest.
Target: Prolyl endopeptidase-like (Homo sapiens) (UniProt Q4J6C6)
Assay: PREPL enzyme inhibitors, primary screen, biochemical, fluorescence polarization (AID 2751);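 note: 0% = enzyme with DMSO and 100% = wells lacking enzyme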
Details: recombinant PREPL, fluorescence polarization activity-based probe; at 5.96 µM; hits give high values

Sequences of proteins named here, by UniProt entry; tags and fusion partners are left off.
UniProt Q4J6C6, whole entry: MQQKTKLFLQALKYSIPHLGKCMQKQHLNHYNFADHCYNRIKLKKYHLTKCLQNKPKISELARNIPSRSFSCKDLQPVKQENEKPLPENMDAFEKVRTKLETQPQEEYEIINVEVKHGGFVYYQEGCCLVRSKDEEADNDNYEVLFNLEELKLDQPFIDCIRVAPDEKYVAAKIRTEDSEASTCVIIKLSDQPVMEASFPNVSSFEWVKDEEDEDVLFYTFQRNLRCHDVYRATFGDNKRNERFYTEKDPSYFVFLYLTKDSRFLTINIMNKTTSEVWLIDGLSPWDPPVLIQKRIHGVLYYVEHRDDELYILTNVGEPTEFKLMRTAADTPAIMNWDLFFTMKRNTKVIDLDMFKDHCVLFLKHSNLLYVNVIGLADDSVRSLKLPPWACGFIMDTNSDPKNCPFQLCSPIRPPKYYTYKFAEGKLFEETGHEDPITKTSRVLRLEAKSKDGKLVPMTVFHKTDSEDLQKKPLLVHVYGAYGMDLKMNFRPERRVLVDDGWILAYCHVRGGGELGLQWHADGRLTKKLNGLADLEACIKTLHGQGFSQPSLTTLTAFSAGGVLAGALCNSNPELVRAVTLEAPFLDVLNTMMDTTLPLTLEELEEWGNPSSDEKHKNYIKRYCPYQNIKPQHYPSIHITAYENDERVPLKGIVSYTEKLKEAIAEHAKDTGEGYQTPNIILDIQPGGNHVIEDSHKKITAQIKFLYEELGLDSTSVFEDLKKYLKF

SMILES | inhibition
O=C(NCC1(N2CCCCC2)CCCCC1)c1cccc(Br)c1 | inactive: 42.4%
CCN1CCCC(OC(=O)C2(O)c3ccccc3C=Cc3ccccc32)C1 (centres undefined) | inactive: 1.94%
Cc1cc(C(=O)NCC2(N3CCCCC3)CCCCC2)ccc1[N+](=O)[O-] | inactive: 35.6%
COc1ccc(C(=O)NCC2(N(C)C)CCCCC2)cc1 | inactive: 10.9%
O=C(NCC1(N2CCCCC2)CCCCC1)c1cc(F)c(F)cc1Cl | inactive: -3.79%
C=CCN1CCN(CCOC(=O)C(O)(c2ccccc2)c2ccccc2)CC1 | inactive: -0.89%
CN(C)c1ccc(C(=O)NCC2(N(C)C)CCCCC2)cc1 | inactive: -1.07%
CN(C)C1CCCC1OC(=O)C(O)(c1ccccc1)c1ccccc1 (centres undefined) | inactive: 0.99%
Cc1ccccc1C(=O)NCC1(N2CCCCC2)CCCCC1 | inactive: 2.82%
Cc1ccc(C(=O)NCC2(N3CCCCC3)CCCCC2)cc1 | inactive: 24.4%
CC(C)N1C(=O)CC2(CCN(CCOC(=O)C(O)(c3ccccc3)c3ccccc3)CC2)C1=O | inactive: -3.87%
COc1cc(SC)ccc1C(=O)NCC1(N(C)C)CCCCC1 | inactive: -1.27%
CCN(CC)CC(C)C(C)OC(=O)C(O)(c1ccccc1)c1ccccc1 (centres undefined) | active: 49%
CN1[C@@H]2CC[C@H]1CC(OC(=O)C(O)(c1ccccc1)c1ccccc1)C2 (some centres undefined) | inactive: 4.35%
O=C(NCC1(N2CCCCC2)CCCCC1)c1cc([N+](=O)[O-])ccc1Cl | inactive: 20.9%
CN(C)c1cccc(C(=O)NCC2(N(C)C)CCCCC2)c1 | inactive: 7.28%
CC(C)Oc1ccc(C(=O)NCC2(N(C)C)CCCCC2)cc1 | inactive: 2.17%
COc1ccc(Br)c(C(=O)NCC2(N3CCCCC3)CCCCC2)c1 | inactive: 20.9%
O=C(OC1CN2CCC1CC2)C(CO)(c1ccccc1)c1ccccc1 (centres undefined) | inactive: 26.2%
O=C(NCC1(N2CCCCC2)CCCCC1)c1cccc(Cl)c1 | inactive: 18.5%
COc1ccc(Cl)cc1C(=O)NCC1(N(C)C)CCCCC1 | inactive: 17.8%
COc1cccc(C(=O)NCC2(N3CCCCC3)CCCCC2)c1 | inactive: 15%
COc1cc(C(=O)NCC2(N(C)C)CCCCC2)c([N+](=O)[O-])cc1OC | inactive: 0.43%
CN(C)C1(CNC(=O)c2ccc(Br)cc2)CCCCC1 | inactive: -6.79%
